According to ChEMBL document CHEMBL1125499, “Enantiomeric N-substituted N-normetazocines: a comparative study of affinities at sigma, PCP, and mu opioid receptors” (J Med Chem, 1992):

Assays:
[1] = Ratio of binding affinities of pcp receptor(ki(nM)) to sigma opioid receptor(ki(nM))
[2] = Binding affinity against sigma opioid receptor using [3H]pentazocine as radioligand.

C[C@H]1[C@H]2Cc3ccc(O)cc3[C@@]1(C)CCN2Cc1ccccc1
Ratio [1]: 178

C[C@@H]1[C@@H]2Cc3ccc(O)cc3[C@]1(C)CCN2Cc1ccccc1
Ratio [1]: > 14900

C=CCN1CC[C@@]2(C)c3cc(O)ccc3C[C@H]1[C@H]2C
Ratio [1]: 3.77 | Ki [2]: 59.7 nM

C=CCN1CC[C@]2(C)c3cc(O)ccc3C[C@@H]1[C@@H]2C
Ratio [1]: < 0.17
